Measurements taken from patent publication US5045222A, “Use of triacylated ethanolamines as liquid, water-miscible peroxide activators” (Hoechst Aktiengesellschaft, priority 1988, dated 1991).
This is a selection: effects in other tests are not listed, and their absence says nothing.

Assays:
[1] = Wash tests in Launder-O-meter at 60° C., red wine stain; details: 30 minutes, 25 mg active oxygen per liter, 1.5 g IEC basic washing powder per liter
Method: These tests were carried out at 60° C. in water of 15° German hardness in a Launder-O-meter using standard soil cloths WFK 10 G cotton (tea stain) and EMPA cotton No. 114 (red wine stain). The bleaching systems perborate) were added in such amounts that in each case 25 mg of active oxygen were present per liter of washing liquor. The detergent used in each case was 1.5 g of IEC basic washing powder per liter of washing liquor. The washing time was 30 minutes. The bleaching effect was determined as the increase in the reflectance of the various test fabrics. The measurements were processed in the usual manner.

[2] = Washing tests in Launder-O-meter at room temperature, red wine stain; details: 25° C., 15 minutes, 3% activator and 10% sodium perborate
Method: The following tests were carried out at 25° C. in water of 15° German hardness in a Launder-O-meter using standard soil cloths WFK 10 G cotton (tea stain) and EMPA cotton No. 114 (red wine stain) and the IEC basic washing powder. The detergent composition contained in each case 3% of the activator and 10% of sodium perborate. The washing time was 15 minutes.

Which Reflectance values [1] does the source give for sodium perborate here?
Its Reflectance values is 58.0.

What about the Reflectance [2] of the same substance?
The Reflectance was 51.7.
